# Laboratory results: PubChem BioAssay AID2777 (Johns Hopkins Ion Channel Center, 2010)
# The list shows a part of the results, in another mix than the full data. Some results for these compounds are left out of this collection, so the calls shown say nothing about other tests. The source made the active and inactive calls.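 How the source made its calls: active means rise or fall in signal beyond 3 SD of buffer-only wells in both replicate plates, either sign; inactive means the rest.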
# System: transient receptor potential cation channel C4 (TRPC4), mouse
# Assay: membrane potential change in TRPC4 cells – cell-based, HEK293 TRPC4/mu-opioid, membrane potential dye, selectivity assay for TRPC6 inhibitor project, confirmation (AID 2777);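 further: integrated kinetic ratio of fluorescence range over baseline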
# Settings: membrane potential fluorescence, at 10 µM
compound,measurement,value
O=C(OC1CN2CCC1CC2)C(CO)(c1ccccc1)c1ccccc1 (stereo unspecified),"activity change, negative = inhibition",active: -0.62%
